Consider one molecule from ChEMBL document CHEMBL6083227, “Novel sulfonamides unveiled as potent anti-lung cancer agents via tumor pyruvate kinase M2 activation” (RSC Med Chem, 2024).

Structures are written as SMILES.

The assay concerns A549. Briefly: Induction of apoptosis in human A549 cells assessed as viable cells at IC50 incubated for 24 hrs by Annexin V-FITC/PI staining based flow cytometry (reference value: 91.838 %). In kind it is functional. For orientation: Flow cytometry measures light scatter and fluorescence of single cells or particles in a stream.

Turning to `O=C(CN1CCN(S(=O)(=O)c2ccccc2)CC1)c1cnc2ncccn12`, the Activity is reported as 56.432%.
